The source of these data is patent EP3046573B1, “AMYLIN ANALOGUES” (Zealand Pharma A/S, priority 2013, dated 2015).

The data set can be described thus: in vivo. The note with it: female, NMRI, mouse.

In general, half-life refers to the time in which the quantity being followed falls by half. As a reminder, the bioavailability is dose-corrected exposure relative to a reference, in per cent. Higher therefore signals much systemic uptake. Compound `CC[C@H](C)[C@H](NC(=O)[C@@H]1CCCN1C(=O)CNC(=O)[C@H](Cc1ccccc1)NC(=O)[C@H](CC(N)=O)NC(=O)[C@H](CC(N)=O)NC(=O)[C@H](CO)NC(=O)[C@H](CO)NC(=O)[C@H](Cc1c[nH]cn1)NC(=O)[C@@H](NC(=O)[C@H](CC(C)C)NC(=O)[C@H](Cc1ccccc1)NC(=O)[C@H](CC(N)=O)NC(=O)[C@H](C)NC(=O)[C@H](CC(C)C)NC(=O)[C@H](CCCNC(=N)N)NC(=O)[C@H](CCC(N)=O)NC(=O)[C@@H](NC(=O)[C@H](C)NC(=O)[C@@H]1CSSC[C@H](NC(=O)[C@@H](N)CCCCN)C(=O)N[C@@H](CC(N)=O)C(=O)N[C@@H]([C@@H](C)O)C(=O)N[C@@H](C)C(=O)N[C@@H]([C@@H](C)O)C(=O)N1)[C@@H](C)O)C(C)C)C(=O)N[C@@H](CC(C)C)C(=O)N1CCC[C@H]1C(=O)N1CCC[C@H]1C(=O)N[C@H](C(=O)N[C@@H](CC(N)=O)C(=O)N[C@H](C(=O)NCC(=O)N[C@@H](CO)C(=O)N[C@@H](CC(N)=O)C(=O)N[C@H](C(=O)N[C@@H](Cc1ccc(O)cc1)C(N)=O)[C@@H](C)O)C(C)C)[C@@H](C)O` [pramlintide] gave a half-life (iv) of 6 min. Also, where the note is “sc”, the bioavailability is 46% and the half-life is 18 min.
